Test results taken from US4962224A, “N-naphthoylglycines as aldose reductase inhibitors” (American Home Products Corporation, priority 1989, dated 1990).

Test system: dulcitol accumulation
Experiment: lowering of dulcitol (galactitol) accumulation in tissues of galactosemic rats (Table I, IN VIVO)
Set-up: species or system rat (Sprague-Dawley)
Conditions: diaphragm, 9 mg/kg, 4 days
Source text: Such experiments are exemplified hereinbelow after the listing of the following general comments pertaining to these experiments:
(a) Four or more groups of six male rats, […], Sprague-Dawley strain, were used. The first group, the control group, was fed a mixture of laboratory chow (rodent Laboratory Chow, Purina) and […] at 20% (w/w %) concentration. […] The test compound was either admixed to the diet or administered by gavage. In experiments involving compound administration in the diet, the average dose administered was calculated from the actual food intake of the animals in each group. The concentration of galactose in the diet of the treated groups was the same as that for the untreated galactosemic group.
(b) After four days, the animals were killed by decapitation. The eyeballs were removed and punctured with a razor blade; the freed lenses were rolled gently on filter paper and weighed. The sciatic nerves were dissected as completely as possible and weighed. Both tissues when frozen can be kept up to two weeks before being analyzed for galactitol.
Only two minor reagent changes were made: (a) the rinsing mixture was an aqueous 5% (w/v) trichloroacetic acid solution and (b) the stock solution was prepared by dissolving 25 mg of dulcitol in 100 mL of an aqueous trichloroacetic acid solution. […]

COc1ccc2c(C(=S)N(C)CC(=O)O)cccc2c1C(F)(F)F [tolrestat, N-[[6-methoxy-5-(trifluoromethyl)-1-naphthalenyl]thioxomethyl]-N-methylglycine, reference compound]
% Lowering dulcitol accumulation IN VIVO, D: 87%
